What was measured:
Conditions in all cases: in vivo
[1] = system: silverleaf whitefly (Bemisia argentifolii Bellows and Perring)
Source text: For evaluating control of silverleaf whitefly (Bemisia argentifolii Bellows and Perring) through contact and/or systemic means, each test unit consisted of a small open container with a 12- to 14-day-old cotton plant inside. This was pre-infested by placing test units into cages infested with adult whiteflies so that oviposition on the cotton leaves could occur. The adults were removed from the plants with an air-blast nozzle, and the test units were capped. The test units were then stored 2 to 3 days before spraying.
(§1) Test compounds were formulated using a solution containing 10% acetone, 90% water and 300 ppm X-77® Spreader Lo-Foam Formula non-ionic surfactant containing alkylarylpolyoxyethylene, free fatty acids, glycols and 2-propanol (Loveland Industries, Inc.) to provide the desired concentration in ppm. Formulated test solutions were then applied in 1 mL volumes through a SUJ2 atomizer nozzle with 1/8 JJ custom body (Spraying Systems Co.) positioned 1.27 cm (0.5 inches) above the top of each test unit.
The results for all experimental compositions in this test were replicated three times. After spraying of the formulated test composition, each test unit was allowed to dry for 1 hour and the cap removed. The test units were held for 13 days in a growth chamber at 28° C. and 50-70% relative humidity.

[2] = system: corn planthopper (Peregrines maidis)
Protocol: as §1
For evaluating control of corn planthopper (Peregrines maidis) through contact and/or systemic means, each test unit consisted of a small open cylindrical container with a 3- to 4-day-old corn (maize) plant (spike) inside. White sand was added to the top of the soil prior to application. Test compounds were formulated and sprayed with 3 replications as described for Test A. After spraying, the test units were allowed to dry for 1 hour before they were post-infested with 10 to 20 corn planthoppers (18- to 20-day-old nymphs) by sprinkling them onto the sand with a salt shaker. A black, screened cap was placed on the top of each container. The test units were held for 6 days in a growth chamber at 19-21° C. and 50-70% relative humidity.

[3] = system: western flower thrip (Frankliniella occidentalis Pergande)
Protocol: as §1
For evaluating control of the western flower thrip (Frankliniella occidentalis Pergande) through contact and/or systemic means, each test unit consisted of a small open container with a 5- to 7-day-old bean (var. Soleil) plant inside.
Test solutions were formulated and sprayed with 3 replications as described for Test A. After spraying, the test units were allowed to dry for 1 hour, 22 to 27 adult thrips were added to each unit and then a black, screened cap was placed on top. The test units were held for 7 days at 25° C. and 45-55% relative humidity.

Substance	% mortality (obs) [1]	% mortality (obs) [2]	% mortality (obs) [3]
Dinotefuran	74%	–	–
Triazamate	–	94%	90%

— patent US8937089B2, “Synergistic mixtures of anthranilamide invertebrate pest control agents” (priority 2004, dated 2015)
